In PMC5717258, “Bioaccumulation of pharmaceuticals and personal care product chemicals in fish exposed to wastewater effluent in an urban wetland” (Scientific Reports, 2017):

Legend:
[1] = human; ref Schulz et al.[56]; cited from earlier work
[2] = not given; remark: listed apart in the source
[3] = in vivo; conditions: goldfish (Carassius auratus), plasma concentration
[4] = Brown Bullhead (Ameiurus nebulosus), in vivo
[5] = Cootes carp 13, Sep 28, 2011, female, wet weight
[6] = Cootes carp 36, Oct 3, 2011, female, wet weight
[7] = male, goldfish (Carassius auratus), in vivo
[8] = carp (Cyprinus carpio), in vivo
[9] = female, carp (Cyprinus carpio), in vivo
[10] = male, carp (Cyprinus carpio), in vivo

## CC(C)Cc1ccc(C(C)C(=O)O)cc1 (centres unmarked) [Ibuprofen]
[5]
  plasma concentration, CPM-C 13: < 4.67 ng/g
[6]
  plasma concentration, CPM-C 36: 4.67 ng/g
Table S7
  Carp plasma concentration, this study (range): 4.67 -4.67 ng/g

## CN(C)CCCC1(c2ccc(F)cc2)OCc2cc(C#N)ccc21 (centres unmarked) [Citalopram]
[1]
  toxic dose (toxic blood-plasma/serum concentration): 220 ng/mL

## CNCCC(Oc1ccc(C(F)(F)F)cc1)c1ccccc1 (centres unmarked) [Fluoxetine]
[2]; [7]
  Goldfish plasma concentration, this study (range): 0.15 to 0.4 ng/g
  plasma concentration, CPM wild-01: 0.147 ng/g
  plasma concentration, CPM wild-02: 0.153 ng/g
  plasma concentration, CPM wild-03: 0.4 ng/g
[3]; CPM1 caged
  concentration at 21 days: 0.302 ng/g
[3]; CPM2 caged
  concentration at 21 days: 0.146 ng/g
[3]; CPM3 caged
  concentration at 21 days: 0.154 ng/g
[3]; JH caged
  concentration at 21 days: < 0.3 ng/g

## CN1[C@@H]2CC[C@H]1C[C@@H](OC(c1ccccc1)c1ccccc1)C2 [Benztropine]
[8]
  Carp plasma concentration, this study (range): 0.05 to 0.41 ng/g
  Cootes carp plasma, range of concentrations: 0.05 to 0.41 ng/g
  plasma concentration, carp, this study (mean): 0.27 ng/g wet weight or ng/mL for plasma
[9]
  plasma concentration, CPM-C 10: 0.373 ng/g
  plasma concentration, CPM-C 13: 0.407 ng/g
  plasma concentration, CPM-C 36: 0.371 ng/g
  plasma concentration, JH-C 73: 0.052 ng/g
  plasma concentration, JH-C 75: 0.375 ng/g
  plasma concentration, JH-C 82: 0.050 ng/g
[10]
  plasma concentration, CPM-C 01: 0.053 ng/g
  plasma concentration, CPM-C 2: 0.358 ng/g
  plasma concentration, CPM-C 20: 0.054 ng/g
  plasma concentration, JH-C 54: 0.053 ng/g
  plasma concentration, JH-C 74: 0.053 ng/g
  plasma concentration, JH-C 78: 0.052 ng/g
[2]; in vivo
  plasma concentration, goldfish, this study (mean): < mdl
[4]
  plasma concentration, JH-BB: 0.436 ng/g

## Cn1c(=O)c2c(ncn2C)n(C)c1=O [Caffeine]
Cootes carp 01, 2011, male, wet weight
  plasma concentration, CPM-C 01: 1.58 ng/g
Cootes carp 2, Sep 27, 2011, male, wet weight
  plasma concentration, CPM-C 2: 5.05 ng/g
Cootes carp 10, Sep 28, 2011, female, wet weight
  plasma concentration, CPM-C 10: 2.27 ng/g
[5]
  plasma concentration, CPM-C 13: 2.34 ng/g
Cootes carp 20, 2011, male, wet weight
  plasma concentration, CPM-C 20: 1.62 ng/g
[6]
  plasma concentration, CPM-C 36: 2.15 ng/g
Table S7
  Carp plasma concentration, this study (range): 1.58 to 5.05 ng/g
[2]; Table S7
  Goldfish plasma concentration, this study (range): 1.47 to 1.57 ng/g
[2]; wild goldfish sample 01, 2012, wet weight
  plasma concentration, CPM wild-01: 1.47 ng/g

Read-outs that look alike come from different tables or passages of the source.
